Literature values in paper PMC2884063.

Biological target: GFP (Aequorea victoria) [GFP: P42212]

GFP (from UniProt P42212)
Kd: 100 µM
